# The list shows a part of the results, in another mix than the full data. The source made the active and inactive calls. No stated cut-off is given here; in the data, active means activation above about 7.8%; inactive means the rest.
# Experiment: SMARCA2 (BRM) function activators, primary screen, cell-based, luminescence, high throughput (AID 652017);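 further: 0% = vehicle wells and 100% = reference activator wells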
# Details: MG213 cells, MMTV-luciferase reporter, dexamethasone, overnight; at 9.1 µM; stronger effect = higher value
row,Compound,activation
1,COC(=O)C1(C)COP(=O)(NCc2ccccc2)OC1 (stereo unspecified),inactive: -1.73%
2,CC(=O)Nc1ccc([As](=O)(O)O)c(O)c1,inactive: 0.87%
3,CC(=O)Nc1ccc(Oc2c([N+](=O)[O-])cc([N+](=O)[O-])cc2[N+](=O)[O-])cc1,inactive: -4.84%
4,O=P1(Nc2nc3ccc(Cl)cc3s2)COc2ccccc2O1 (stereo unspecified),inactive: -0.42%
5,CCOc1ccc(C2=NCC(CBr)S2)cc1 (stereo unspecified),inactive: 0.51%
6,CC(C)(C)C(=O)NC(Sc1ccccc1)C(Cl)(Cl)Cl (stereo unspecified),inactive: 2.54%
7,CCc1cc(O)c([N+](=O)[O-])c(C)c1[N+](=O)[O-],inactive: 0.94%
8,O=P(Nc1nccs1)(c1ccccc1)c1ccccc1,inactive: -1.39%
9,CC(C)C(=O)NC(Sc1ccccc1)C(Cl)(Cl)Cl (stereo unspecified),inactive: 0.96%
10,c1nnnn1CCn1cnnn1,inactive: -4.98%
11,O=[As](O)(c1ccccc1)c1ccc(O)cc1,inactive: -0.52%
12,CC(=O)NC(SC(=S)N(C)C)C(Cl)(Cl)Cl (stereo unspecified),inactive: 5.05%
13,O=[N+]([O-])c1ncn(CCn2cnc([N+](=O)[O-])n2)n1,inactive: -2.84%
14,O=C(OC1CN2CCC1CC2)c1cccc(Cl)c1 (stereo unspecified),inactive: 4.03%
15,C/C(N)=N\P(=O)(OCc1ccccc1)OCc1ccccc1,inactive: -0.29%
16,C(Cc1nn[nH]n1)Cc1nn[nH]n1,inactive: -0.29%
17,Nc1ccc([As](=O)(O)c2ccc([N+](=O)[O-])cc2)cc1,inactive: 0.05%
18,CN(C)C1(CNC(=O)c2ccc(Cl)c(S(N)(=O)=O)c2)CCCCC1,inactive: -2.1%
19,O=P(Nc1ccccn1)(c1ccc(Br)cc1)c1ccc(Br)cc1,inactive: -3.05%
20,COc1ccc(N)c([N+](=O)[O-])c1[N+](=O)[O-],inactive: -4.5%
21,Nc1ccc(CCCCOc2ccccc2)cc1,inactive: -3.24%
22,O=P(Nc1nc2ccccc2s1)(c1ccccc1)c1ccccc1,inactive: -1.92%
23,C[C@H]1OP(=O)(Oc2ccccc2)[C@H](O)[C@H](O)[C@H]1N=[N+]=[N-] (stereo partly specified),inactive: -0.83%

row,Compound,activation
1,Cc1ccc(S(=O)(=O)N(CCCN)CCCc2c(C)nc(N)[nH]c2=O)cc1,inactive: 5.76%
2,O=P1(Nc2ncccn2)COc2ccccc2OC1,inactive: -0.75%
3,Nc1cccc([As](=O)(O)c2ccccc2)c1,inactive: -1.85%
4,Cc1ccc(OCC(=O)OC2CN3CCC2CC3)cc1 (stereo unspecified),inactive: -4.08%
5,O=[As](O)(c1cccs1)c1cccs1,inactive: -2.94%
6,NS(=O)(=O)c1cccc(NC(=O)COC(=O)C(O)(c2ccccc2)c2ccccc2)c1,inactive: 7.57%
7,O=P1(Nc2ccc(Br)cn2)COc2ccccc2OC1,inactive: -1.34%
8,Cc1nn(-c2ccccc2)c2c1P(=O)(N1CCOCC1)N(C)C(c1ccccc1)=N2 (stereo unspecified),inactive: 3.06%
9,Cc1ccc(C(=O)OC2CN3CCC2CC3)cc1 (stereo unspecified),inactive: -3.09%
10,CC1CCC(C(C)C)C(OP(=O)(Nc2ccccn2)c2ccccc2)C1 (stereo unspecified),inactive: 0.45%
11,CN(C)C1(CNC(=O)c2ccc(S(C)(=O)=O)cc2)CCCCC1,inactive: 0.37%
12,O=C(/C=C/c1ccccc1)OC1CN2CCC1CC2 (stereo unspecified),inactive: 1.14%
13,CCCC1OP(=O)(Nc2ccccc2)OCC1CC (stereo unspecified),inactive: -1.46%
14,COc1ccccc1CNC(=O)COC(=O)C(O)(c1ccccc1)c1ccccc1,inactive: -0.34%
15,CN(C(=O)Cc1ccc(Cl)c(Cl)c1)[C@@H]1CCCC[C@H]1N1CCCC1,inactive: -2.99%
16,CC(C)/C=N\N=C(\N)N[N+](=O)[O-],inactive: 0.87%
17,CN(C(=O)Cc1ccc(Cl)c(Cl)c1)C1CCCC[C@@H]1N1CCCC1 (stereo partly specified),inactive: 4.39%
18,CC1(CBr)Cn2c(nc3ccccc3c2=O)S1 (stereo unspecified),inactive: -0.45%
19,CCC1=CC2Cc3nc4ccc(Cl)cc4c(N)c3C(C1)C2 (stereo unspecified),inactive: 1.77%
20,O=P1(Nc2ccccn2)COc2ccccc2OC1,inactive: 2.09%
21,CCOP(=O)(NC(=NC(C)c1ccccc1)NC(C)c1ccccc1)OCC (stereo unspecified),inactive: -0.17%
22,CCOP(=O)(Nc1ccc(C)cn1)OCC,inactive: -0.54%
23,CN(CCCl)Cc1cc(Cl)c(NC2=NCCN2)c(Cl)c1,inactive: -1.7%

row,Compound,activation
1,Clc1n[nH]nc1-c1nn[nH][15n]1,inactive: 0.37%
2,O=P1(N(CCCl)CCCl)NCCC(C(F)(F)F)O1 (stereo unspecified),inactive: -3.43%
3,CC(C)(C)C(=O)NC(Sc1ncccn1)C(Cl)(Cl)Cl (stereo unspecified),inactive: -2.25%
4,Cc1ccc(NCCc2c([N+](=O)[O-])cc([N+](=O)[O-])cc2[N+](=O)[O-])cc1,inactive: 3.24%
5,Nc1cccc2c([As](=O)(O)O)cccc12,inactive: -2.99%
6,CCCOP(=S)(Nc1nc(N)cc(=O)[nH]1)OCCC,inactive: 0.44%
7,COc1cc(C2NCCC3(OCCO3)C2(C)C)cc(OC)c1OC (stereo unspecified),inactive: 3.86%
8,CCOP(=O)(Nc1cccc2ccccc12)OCC,inactive: 1.56%
9,O=C(OC1CN2CCC1CC2)c1ccc(Cl)cc1 (stereo unspecified),inactive: -1.81%
10,O=[As](O)(O)c1cccnc1,inactive: -2.25%
11,COc1cc(C(=O)NCC2(N3CCOCC3)CCCCC2)cc(Cl)c1OC(C)C,inactive: -2.64%
12,CS(=O)(=O)c1ccc(Cl)c(NC(=O)COC(=O)C(O)(c2ccccc2)c2ccccc2)c1,inactive: 0.91%
13,Cc1cccc(OCC(=O)OC2CN3CCC2CC3)c1 (stereo unspecified),inactive: 2.78%
14,O=[As](O)(c1cccc(O)c1)c1cccc(O)c1,inactive: -0.06%
15,NC(=O)Nc1ccc([As](=O)(O)O)cc1,inactive: 1.73%
16,N#CCCN(C(=O)COC(=O)C(O)(c1ccccc1)c1ccccc1)c1ccc(F)cc1,inactive: -0.89%
17,CCOP1(=S)c2c(C)nn(CCC#N)c2N=C(c2ccc(F)cc2)N1C (stereo unspecified),inactive: -2.18%
18,CN(C(=O)Cc1ccccc1)[C@@H]1CC[C@]2(CCCO2)C[C@H]1N1CCCC1,inactive: -1.58%
19,O=[N+]([O-])c1ccc2c(c1)nnn2O,inactive: -2.27%
20,CN(C)C(=O)c1cc([N+](=O)[O-])cc2c1-c1c(cc([N+](=O)[O-])cc1[N+](=O)[O-])C2=O,inactive: -6.05%
21,CN(C(=O)Cc1ccc(Cl)c(Cl)c1)[C@H]1CC[C@@]2(CCCO2)C[C@@H]1N1CCCC1,inactive: 3.72%
22,CCOP1(=S)c2c(C)nn(CCC#N)c2N=C(c2ccccc2F)N1C (stereo unspecified),inactive: 0.01%
23,O=P(Nc1nccs1)(Oc1ccccc1)Oc1ccccc1,inactive: 0.65%

row,Compound,activation
1,O=C(O)COc1ccc([As](=O)(O)O)cc1[N+](=O)[O-],inactive: -0.88%
2,Nc1ccccc1[As](=O)(O)c1ccccc1,inactive: 3.07%
3,ClCCSc1nnc(-c2cccnc2)o1,inactive: 1.85%
4,COC(=O)C1(C)COP(=O)(N2CCCCCC2)OC1 (stereo unspecified),inactive: -0.58%
5,CC(C)c1ccc(OP(=O)(Nc2ccccn2)Oc2ccccc2F)cc1 (stereo unspecified),inactive: -1.28%
6,CC(C)NC(=O)NP(=O)(Oc1ccccc1)Oc1ccccc1,inactive: -2.25%
7,CCN(CC)C(=S)SC(NC=O)C(Cl)(Cl)Cl (stereo unspecified),inactive: 1.71%
8,O=C(OC1CN2CCC1CC2)c1cccc2[nH]cnc12 (stereo unspecified),inactive: 1.74%
9,C[As](=O)(O)c1cccc(C(=O)O)c1,inactive: 4.62%
10,O=[As](O)(c1ccc(O)cc1)c1ccccc1O,inactive: 3.52%
11,O=[N+]([O-])c1ccc(-c2cc([N+](=O)[O-])c(O)c([N+](=O)[O-])c2)cc1,inactive: 4.06%
12,COc1cc(C(=O)NCC2(N3CCOCC3)CCCCC2)ccc1OCC(C)C,inactive: -0.89%
13,Cc1ccc(OP(=O)(Nc2ccc([N+](=O)[O-])cn2)Oc2ccc(C)cc2)cc1,inactive: 0.27%
14,[N-]=[N+]=NC1CCCCC1NC(=O)c1cc([N+](=O)[O-])cc([N+](=O)[O-])c1 (stereo unspecified),inactive: -1.04%
15,Cc1ccc2nc3c(c(C)c2c1)CC(C(Cl)Cl)S3 (stereo unspecified),inactive: 0.69%
16,O=[N+]([O-])c1cc(Oc2ccc([N+](=O)[O-])cc2C(F)(F)F)cc([N+](=O)[O-])c1,inactive: -2.58%
17,COc1ccc(N/C(=N/P(=O)(N2CCOCC2)N2CCOCC2)N2CCOCC2)cc1,inactive: -3.86%
18,Cc1c2c(nc3ccccc13)SC(C(Cl)Cl)C2 (stereo unspecified),inactive: 0.24%
19,O=C(OC1CN2CCC1CC2)C12CC3CC(CC(C3)C1)C2 (stereo unspecified),inactive: 2.62%
20,Cc1cc(=O)[nH]c(N[N+](=O)[O-])n1,inactive: 0.23%
21,O=P1(N(CCCl)CCCl)Nc2ccccc2N1,inactive: 2.63%
22,O=P1(N(CCCl)CCCl)OCCCN1CCCl (stereo unspecified),inactive: -0.93%
23,COc1ccc2nc(NP(=O)(c3ccccc3)c3ccccc3)sc2c1,inactive: -2.29%

row,Compound,activation
1,COc1cc(I)ccc1[As](=O)(O)O,inactive: 2.13%
2,O=C(OC1CN2CCC1CC2)c1cccc([N+](=O)[O-])c1 (stereo unspecified),inactive: 0.81%
3,CCOC(=O)c1ccc(NC(=O)C(C)(CCl)SC)cc1 (stereo unspecified),inactive: 4.65%
4,CCC(C)N(CC(C)C)C(=S)SC(NC(C)=O)C(Cl)(Cl)Cl (stereo unspecified),inactive: -5.88%
5,COP1(=S)c2c(C)nn(CCC#N)c2N=C(c2ccc(F)cc2)N1C (stereo unspecified),inactive: -3.18%
6,COC(=O)C1(C)COP(=O)(N2CCCC2)OC1 (stereo unspecified),inactive: -3.59%
7,O=C(O)C(=O)c1ccc(N(CCCl)CCCl)cc1,inactive: -1.57%
8,O=C(COc1ccccc1)OC1CN2CCC1CC2 (stereo unspecified),inactive: -0.43%
9,O=C(Nc1ccncc1[N+](=O)[O-])c1ccc([N+](=O)[O-])cc1[N+](=O)[O-],inactive: -0.5%
10,CCOC(=O)Nc1cccc([As](=O)(O)O)c1,inactive: -2.77%
11,Cc1cc(SC(NC=O)C(Cl)(Cl)Cl)ncn1 (stereo unspecified),inactive: 0.18%
12,O=P(Nc1ccccn1)(c1cccc2ccccc12)c1cccc2ccccc12,inactive: -3.02%
13,O=[N+]([O-])c1ccc(Nc2ccc(Oc3ccc([N+](=O)[O-])cc3[N+](=O)[O-])cc2)c([N+](=O)[O-])c1,inactive: -1.48%
14,O=C(O)C(O)c1ccc(N(CCCl)CCCl)cc1 (stereo unspecified),inactive: 0.34%
15,CCOC(=O)Nc1ccc([As](=O)(O)O)c(O)c1,inactive: 3.59%
16,CC1CCNP(=O)(N(CCCl)CCCl)O1 (stereo unspecified),inactive: -5.01%
17,COP(=O)(OC)N1CC1c1ccccc1 (stereo unspecified),inactive: -2.33%
18,CCCCOc1ccc(C(=O)NCC2(N3CCCCC3)CCCCC2)cc1OC,inactive: 0.52%
19,Cc1cc(SC(NC(=O)c2ccccc2)C(Cl)(Cl)Cl)nc(C(C)C)n1 (stereo unspecified),inactive: -1.48%
